In PubChem BioAssay (NCI):
Some results for these compounds are left out of this collection, so the calls shown say nothing about other tests.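 Step 1: Grow cells in 96-well plates. Step 2: Expose to compound for 48 hours at 5 concentrations. Step 3: Interpolate endpoints linearly; if unreached, use highest concentration. TGI is the concentration that stops growth completely.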

Key:
Assay in all cases: DTP human tumour cell line panel, 48 h
MOLT-4 leukemia = tested on: MOLT-4 leukemia
SF-268 CNS = tested on: SF-268 CNS
CAKI-1 renal = tested on: CAKI-1 renal
SNB-19 CNS = tested on: SNB-19 CNS
SK-OV-3 ovarian = tested on: SK-OV-3 ovarian
MCF7 breast = tested on: MCF7 breast
786-0 renal = tested on: 786-0 renal
RXF 393 renal = tested on: RXF 393 renal
UACC-257 melanoma = tested on: UACC-257 melanoma
OVCAR-3 ovarian = tested on: OVCAR-3 ovarian
NCI-H23 lung = tested on: NCI-H23 lung
SNB-75 CNS = tested on: SNB-75 CNS
SN12C renal = tested on: SN12C renal
ACHN renal = tested on: ACHN renal
DU-145 prostate = tested on: DU-145 prostate
OVCAR-8 ovarian = tested on: OVCAR-8 ovarian
KM12 colon = tested on: KM12 colon
PC-3 prostate = tested on: PC-3 prostate
SW-620 colon = tested on: SW-620 colon
A549 NSCLC = tested on: A549 NSCLC
MDA-MB-231 breast = tested on: MDA-MB-231 breast
NCI-H522 lung = tested on: NCI-H522 lung
UO-31 renal = tested on: UO-31 renal
SF-539 CNS = tested on: SF-539 CNS
HL-60(TB) leukemia = tested on: HL-60(TB) leukemia
NCI/ADR-RES ovarian = tested on: NCI/ADR-RES ovarian
K-562 leukemia = tested on: K-562 leukemia
HOP-62 NSCLC = tested on: HOP-62 NSCLC
EKVX NSCLC = tested on: EKVX NSCLC
UACC-62 melanoma = tested on: UACC-62 melanoma
OVCAR-5 ovarian = tested on: OVCAR-5 ovarian
CCRF-CEM leukemia = tested on: CCRF-CEM leukemia
COLO 205 colon = tested on: COLO 205 colon
U251 CNS = tested on: U251 CNS
RPMI-8226 leukemia = tested on: RPMI-8226 leukemia
SR leukemia = tested on: SR leukemia
SK-MEL-5 melanoma = tested on: SK-MEL-5 melanoma
LOX IMVI melanoma = tested on: LOX IMVI melanoma
SK-MEL-28 melanoma = tested on: SK-MEL-28 melanoma
MALME-3M melanoma = tested on: MALME-3M melanoma
T-47D breast = tested on: T-47D breast
MDA-N = tested on: MDA-N
M14 melanoma = tested on: M14 melanoma
SF-295 CNS = tested on: SF-295 CNS
HCT-116 colon = tested on: HCT-116 colon
NCI-H226 lung = tested on: NCI-H226 lung
HCT-15 colon = tested on: HCT-15 colon
HT29 colon = tested on: HT29 colon
TK-10 renal = tested on: TK-10 renal
HCC-2998 colon = tested on: HCC-2998 colon
IGROV1 ovarian = tested on: IGROV1 ovarian

Measured: TGI

CN1CCC(OC(=O)C2(O)c3ccccc3Oc3ccccc32)CC1
> 100 µM: all assays above
